Test system: LNCaP cells
Test: HPLC quantitation of polyamine and acetyl polyamine levels in LNCaP cells
Type: cell-based, human
Details: androgen treated LNCaP cells
Excerpt: This method is routinely used in the analytical laboratory of the core facility of Cancer Centers and was accessible for quantitative assays necessary for the PK/PD determinations. […] Each data point was an average of two determinations where sample cell pellets were collected from three independent experiments.

N,N′-bis(butadienyl)-1,4-butanediamine [CPC-200]
effect on androgen-induced SSAT gene expression and/or SSAT enzymatic activity: little effect

Reference: patent publication US20110091931A1, “Methods and Kits for Determining Oxygen Free Radical (OFR) Levels in Animal and Human Tissues as a Prognostic Marker for Cancer and Other Pathophysiologies” (COLBY PHARMACEUTICAL COMPANY, priority 2009, published 2011)
